Experimental findings from patent publication US11236106B2, “Cycloalkane-1,3-diamine derivative” (Daiichi Sankyo Company, Limited, priority 2018, dated 2022) are described below.

Counter-ions that a name gives are not always drawn. Like-named read-outs stand apart in the source and are kept apart here. Some results are limits rather than exact numbers.

The GI50 is the concentration at which growth is held to half of that of the control.

Among the test systems are K562 cells; MV-4-11 cells; MOLM-13 cells.
Assay in all cases: cells
What all share (conditions): Homo sapiens

The mark [1] stands for this setting: K562, 72 h, read-out: GI50 (μM) Day3 K562.
Setting [2] is: MV4-11, 72 h, read-out: GI50 (μM) Day3 MV4;11, MV4;11, Day3.
The mark [3] stands for this setting: MOLM-13, 72 h, read-out: GI50 (μM) Day3 MOLM-13, MOLM-13, Day3.
Where [4] appears, read: K562, 168 h, read-out: GI50 (μM) Day7 K562.
Setting [5] is: MV4-11, 168 h, read-out: GI50 (μM) Day7 MV4;11, MV4;11, Day7.
The mark [6] stands for this setting: MOLM-13, 168 h, read-out: GI50 (μM) Day7 MOLM-13, MOLM-13, Day7.

As to `O=C1CCCN1Cc1ccc(CN[C@H]2CCC[C@@H](Nc3ncnc4sc(CC(F)(F)F)cc34)C2)cc1` [Example 38, 1-{[4-({[(1S,3R)-3-{[6-(2,2,2-trifluoroethyl)thieno[2,3-d]pyrimidin-4-yl[amino}cyclohexy]amino}methyl)phenyl]methyl}pyrrolidin-2-one hydrochloride], the GI50 was greater than 10 µM in the assay with K562 cells (setting [1]), 6.09 µM with MV-4-11 cells (setting [2]) and greater than 10 µM in the assay with MOLM-13 cells (setting [3]).

Take `FC(F)(F)Cc1cc2c(N[C@@H]3CCC[C@H](NCc4ccc(-c5ccncc5)cc4)C3)ncnc2s1` [Example 40, (1S,3R)-N^1-{[4-(pyridin-4-yl)phenyl]methyl}-N^3-[6-(2,2,2-trifluoroethyl)thieno[2,3-d]pyrimidin-4-yl]cyclohexane-1,3-diamine hydrochloride]: the GI50 was 5.53 µM in the assay with K562 cells (setting [1]); 4.16 µM in the assay with K562 cells (setting [4]); 2.62 µM in the assay with MV-4-11 cells (setting [2]); 2.16 µM in the assay on MV-4-11 cells (setting [5]); 4.54 µM in the assay on MOLM-13 cells (setting [3]); 4.33 µM in the assay on MOLM-13 cells (setting [6]).

As to `FC(F)(F)Cc1cc2c(N[C@@H]3CCC[C@H](NCc4ccc(Oc5ccccc5)cc4)C3)ncnc2s1` [Example 41, (1S,3R)-N^1-[(4-phenoxyphenyl)methyl]-N^3-[6-(2,2,2-trifluoroethyl)thieno[2,3-d]pyrimidin-4-yl]cyclohexane-1,3-diamine hydrochloride], the GI50 in the assay with K562 cells (setting [1]) was found to be 2.67 µM; in the assay with MV-4-11 cells (setting [2]), 2.46 µM; in the assay with MOLM-13 cells (setting [3]) it was 2.54 µM.

In the case of `OCCN(c1ncnc2sc(CC(F)(F)F)cc12)[C@@H]1CC[C@H](NCc2ccc(-c3cccnc3)cc2)C1` [Example 42, 2-{[(1R,3S)-3-({[4-(pyridin-3-yl)phenyl]methyl}amino)cyclopentyl][6-(2,2,2-trifluoroethyl)thieno[2,3-d]pyrimidin-4-yl[amino}ethan-1-ol hydrochloride], the GI50 in the assay with K562 cells (setting [1]) was 5.09 µM; in the assay with K562 cells (setting [4]), 2.87 µM; with MV-4-11 cells (setting [2]), 1.43 µM; with MV-4-11 cells (setting [5]), 1.14 µM; in the assay on MOLM-13 cells (setting [3]) it was 3.11 µM; in the assay with MOLM-13 cells (setting [6]), 1.96 µM.

With `CCN(c1ncnc2sc(CC(F)(F)F)cc12)[C@@H]1CC[C@H](NCc2ccc(-c3cccnc3)cc2)C1` [Example 43, (1R,3S)-N^1-ethyl-N^3-{[4-(pyridin-3-yl)phenyl]methyl}-N^1-[6-(2,2,2 trifluoroethyl)thieno[2,3-d]pyrimidin-4-yl]cyclopentane-1,3-diamine hydrochloride], the GI50 was 3.02 µM in the assay on K562 cells (setting [1]); 1.72 µM in the assay on K562 cells (setting [4]); 1.18 µM in the assay with MV-4-11 cells (setting [2]); 0.877 µM in the assay with MV-4-11 cells (setting [5]); 2.41 µM with MOLM-13 cells (setting [3]); 1.74 µM in the assay on MOLM-13 cells (setting [6]).

For the compound `COc1cncc(-c2ccc(CN[C@H]3CC[C@@H](N(C)c4ncnc5sc(C6CC6)cc45)C3)cc2)c1` [Example 45, (1R,3S)-N^1-(6-cyclopropylthieno[2,3-d]pyrimidin-4-yl)-N^3-{[4-(5-methoxypyridin-3-yl)phenyl]methyl}-N^1-methylcyclopentane-1,3-diamine hydrochloride], the GI50 in the assay on K562 cells (setting [1]) came out at 3.27 µM; with K562 cells (setting [4]) it was 2 µM; with MV-4-11 cells (setting [2]), 0.865 µM; in the assay on MV-4-11 cells (setting [5]) it was 0.701 µM; with MOLM-13 cells (setting [3]) it was 1.78 µM; in the assay on MOLM-13 cells (setting [6]), 1.4 µM.

With `COc1cncc(-c2ccc(CN[C@H]3CC[C@@H](N(C)c4nc(C)nc5sc(CC(F)(F)F)cc45)C3)cn2)c1` [Example 46, (1R,3S)-N^3-[(5′-methoxy[2,3′-bipyridine]-5-yl)methyl]-N^1-methyl-N^1-[2-methyl-6-(2,2,2-trifluoroethyl)thieno[2,3-d]pyrimidin-4-yl]cyclopentane-1,3-diamine hydrochloride], the GI50 with K562 cells (setting [1]) worked out at 6.42 µM; with MV-4-11 cells (setting [2]), 0.49 µM; with MOLM-13 cells (setting [3]), 2.69 µM.

For `COCc1cc2c(N(C)[C@@H]3CC[C@H](NCc4ccc(-c5cncc(OC)c5)cc4)C3)ncnc2s1` [Example 47, (1R,3S)-N^1-[6-(methoxymethyl)thieno[2,3-d]pyrimidin-4-yl]-N^3-{[4-(5-methoxypyridin-3-yl)phenyl]methyl}-N^1-methylcyclopentane-1,3-diamine hydrochloride], the GI50 with K562 cells (setting [1]) was 6.2 µM; in the assay with MV-4-11 cells (setting [2]) it was 0.704 µM; in the assay with MOLM-13 cells (setting [3]), 2.22 µM.

In the case of `COc1cncc(-c2ccc(CN[C@H]3CC[C@@H](N(C)c4ncnc5sc(C6COC6)cc45)C3)cc2)c1` [Example 48, (1R,3S)-N^3-{[4-(5-methoxypyridin-3-yl)phenyl]methyl}-N^1-methyl-N^1-[6-(oxetan-3-yl)thieno[2,3-d]pyrixnidin-4-yl]cyclopentane-1,3-diamine hydrochloride], the GI50 in the assay with K562 cells (setting [1]) came to 3.45 µM; in the assay on MV-4-11 cells (setting [2]), 1.77 µM; in the assay on MOLM-13 cells (setting [3]) it was 2.21 µM.

On to `CN(c1ncnc2sc(CC(F)(F)F)cc12)[C@@H]1CC[C@H](NCc2ccc(C(=O)NCc3cnn(C)c3)cc2)C1` [Example 49, N-[(1-methyl-1H-pyrazol-4-yl)methyl]-4-({[(1S,3R)-3-{methyl[6-(2,2,2-trifluoroethyl)thieno[2,3-d]pyrimidin-4-yl]amino}cyclopentyl]amino}methyl)benzamide hydrochloride], for which the GI50 is 9.74 µM with K562 cells (setting [1]); 3.18 µM in the assay on K562 cells (setting [4]); 0.598 µM with MV-4-11 cells (setting [2]); 0.49 µM with MV-4-11 cells (setting [5]); 2.52 µM in the assay on MOLM-13 cells (setting [3]); 1.13 µM with MOLM-13 cells (setting [6]).

`COc1cncc(-c2ccc(CN[C@@H]3C[C@H](N(C)c4ncnc5sc(CC(F)(F)F)cc45)C[C@H]3O)cc2)c1` [Example 50, (1R,2R,4S)-2-({[4-(5-methoxypyridin-3-yl)phenyl]methyl}amino)-4-{methyl[6-(2,2,2-trifluoroethyl)thieno[2,3-d]pyrimidin-4-yl]amino}cyclopentan-1-ol hydrochloride]: the GI50 in the assay with K562 cells (setting [1]) is 5.69 µM; in the assay with K562 cells (setting [4]), 3.29 µM; in the assay on MV-4-11 cells (setting [2]), 0.2 µM; in the assay on MV-4-11 cells (setting [5]), 0.0812 µM; in the assay with MOLM-13 cells (setting [3]), 2.53 µM; in the assay with MOLM-13 cells (setting [6]), 0.33 µM.

For the compound `COc1cncc(-c2ccc(CN[C@@H]3C[C@H](N(C)c4ncnc5sc(CC(F)(F)F)cc45)C[C@@H]3O)cc2)c1` [Example 51, (1S,2R,4S)-2-({[4(5methoxypyridin-3-yl)phenyl]methyl}amino)-4-{methyl[6-(2,2,2-trilluoroethyl)thieno[2,3-d]pyrimidin-4-yl]amino}cyclopentan-1-ol hydrochloride], the GI50 in the assay on K562 cells (setting [1]) was found to be 3.2 µM; in the assay with K562 cells (setting [4]), 2.06 µM; in the assay on MV-4-11 cells (setting [2]), 0.137 µM; in the assay on MV-4-11 cells (setting [5]), 0.0621 µM; in the assay with MOLM-13 cells (setting [3]) it was 1.24 µM; in the assay with MOLM-13 cells (setting [6]), 0.259 µM.

Turning to `COc1cncc(-c2ccc(CN[C@@H]3C[C@H](Nc4ncnc5sc(CC(F)(F)F)cc45)CC(F)(F)C3)cc2)c1` [Example 52, (1R,3S)-5,5-difluoro-N^1-{[4-(5-methoxypyridin-3-yl)phenyl]methyl}-N^3-[6-(2,2,2-trifluoroethyl)thieno[2,3-d]pyrimidin-4-yl]cyclohexane-l,3-diamine hydrochloride], the results for the GI50 with K562 cells (setting [1]), in the assay with MV-4-11 cells (setting [2]) and in the assay on MOLM-13 cells (setting [3]) were 5.93 µM, 2.39 µM and 3.37 µM, respectively.

With `CN(c1ncnc2sc(CC(F)(F)F)cc12)[C@@H]1CC[C@H](NCc2ccc(S(=O)(=O)c3ccccc3)cc2)C1` [Example 53, (1R,3S)N^3-{[4-(benzenesulfonyl)phenyl]methyl}N^1-methyl-N^1-[6-(2,2,2-trifluoroethyl)thieno[2,3-d]pyrimidin-4-yl]cyclopentane-1,3-diamine hydrochloride], the GI50 with K562 cells (setting [4]) came out at 0.908 µM; in the assay on MV-4-11 cells (setting [5]), 0.395 µM; in the assay with MOLM-13 cells (setting [6]), 0.826 µM.

Regarding `CNc1nc(N(C)[C@H]2C[C@@H](NCc3ccc(Nc4cccnc4)cc3)C[C@@H]2O)c2cc(CC(F)(F)F)sc2n1` [Example 54, (1S,2S,4R)-2-{methyl[2-(methylamino)-6-(2,2,2-trifluoroethyl)thieno[2,3-d]pyrimidin-4-yl]amino}-4-[({4-[(pyridin-3-yl)amino]phenyl}methyl)amino]cyclopentan-1-ol hydrochloride], the GI50 in the assay with K562 cells (setting [1]) was determined as 3.13 µM; with K562 cells (setting [4]), 2.18 µM; in the assay on MV-4-11 cells (setting [2]), 0.0669 µM; in the assay on MV-4-11 cells (setting [5]) it was 0.0279 µM; with MOLM-13 cells (setting [3]), 1.33 µM; in the assay with MOLM-13 cells (setting [6]) it was 0.0579 µM.

For `C=CC(=O)Nc1cccc(Nc2ccc(CN[C@H]3CC[C@@H](N(C)c4nc(NC)nc5sc(CC(F)(F)F)cc45)C3)cc2)c1` [Example 55, N-{3-[4-({[(1S,3R)-3{methyl[2-(methylamino)-6-(2,2,2-trifluoroethyl)thieno[2,3-d]pyrimidin-4-yl]amino}cyclopentyl]amino}methyl)anilino]phenyl}prop-2-enamide hydrochloride], the GI50 is 1.9 µM in the assay on K562 cells (setting [1]); 1.32 µM with K562 cells (setting [4]); 0.149 µM with MV-4-11 cells (setting [2]); 0.0895 µM in the assay on MV-4-11 cells (setting [5]); 0.614 µM in the assay with MOLM-13 cells (setting [3]); 0.221 µM with MOLM-13 cells (setting [6]).

On to `CN(c1ncnc2sc(CC(F)(F)F)cc12)[C@@H]1CC[C@H](NCc2ccc(N3CCc4ccccc43)cc2)C1` [Example 56, (1R,3S)-N^3-{[4-(2)-3-dihydro-1H-indol-1-yl)phenyl]methyl}-N^1-methyl-N^1-[6-(2,2,2-trifluoroethyl)thieno[2,3-d]pyrimidin-4-yl]cyclopentane-1,3-diamine hydrochloride], for which the concentration for 50% growth inhibition (GI50) in the assay with K562 cells (setting [1]) was 1.26 µM; in the assay with K562 cells (setting [4]) it was 0.809 µM; with MV-4-11 cells (setting [2]) it was 0.769 µM; in the assay with MV-4-11 cells (setting [5]), 0.468 µM; in the assay on MOLM-13 cells (setting [3]), 1.02 µM; in the assay on MOLM-13 cells (setting [6]), 1.07 µM.
